{"source": "patent US20060115815A1", "about": "(priority 2002, published 2006)", "key": {"[1]": {"target": "recombinant HIV-1 protease (Human immunodeficiency virus type 1 group M subtype B, UniProt P04585)", "assay": "biochemical"}, "WT": {"system": "WT", "assay": "microbe, parasite or virus in culture", "format": "cell-based, HIV-1"}, "GS-7340 Ester Hydrolase": {"target": "T1, GS-7340 Ester Hydrolase (Homo sapiens, UniProt P10619)", "T1 construct": "from tissue; host or cells: human peripheral blood mononuclear cells (extract and column pools)", "T1 sequence (P10619 29-326 limits assumed)": "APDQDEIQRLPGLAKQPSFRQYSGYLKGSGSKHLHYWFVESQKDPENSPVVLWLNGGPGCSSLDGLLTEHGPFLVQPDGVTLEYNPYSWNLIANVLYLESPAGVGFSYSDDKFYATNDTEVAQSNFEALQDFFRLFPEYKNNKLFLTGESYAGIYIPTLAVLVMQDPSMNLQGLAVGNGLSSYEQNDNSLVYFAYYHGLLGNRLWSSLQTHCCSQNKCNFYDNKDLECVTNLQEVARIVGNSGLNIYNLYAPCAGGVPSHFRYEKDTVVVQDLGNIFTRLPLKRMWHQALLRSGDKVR", "T1 sequence (P10619 327-480 limits assumed)": "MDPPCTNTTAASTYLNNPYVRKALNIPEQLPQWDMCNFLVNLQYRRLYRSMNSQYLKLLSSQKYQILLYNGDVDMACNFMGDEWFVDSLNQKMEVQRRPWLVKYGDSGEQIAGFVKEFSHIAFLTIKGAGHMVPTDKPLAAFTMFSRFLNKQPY", "assay": "biochemical"}}, "note": "Like-named read-outs stand apart in the source and are kept apart here."}
{"smiles": "Nc1n[nH]c2ccc(CN3C(=O)N(Cc4ccccc4)C(Cc4ccccc4)C(O)C(O)C3Cc3ccccc3)cc12", "note": "(stereo not drawn) [H(DMP-850), reference compound]", "values": [{"measurement": "Ki", "setting": "[1]; read-out: Enzymatic assay Ki", "result": 33, "unit": "pM"}, {"measurement": "EC50", "setting": "WT; read-out: Cell-based assay (MT-4) EC50 WT", "result": 165, "unit": "nM"}]}
{"smiles": "COC(=O)CCC(=O)N[C@@H](C)C(=O)N[C@@H](C)C(=O)N1CCC[C@H]1C(=O)N[C@@H](C)C(=O)CCl", "note": "[MeOSuC-Ala-Ala-Pro-Ala-CMK]", "values": [{"measurement": "IC50", "setting": "GS-7340 Ester Hydrolase", "result": "200000 to 400000", "unit": "nM"}]}
{"smiles": "CCOP(=O)(COc1ccc(CC2C(O)C(O)C(Cc3ccc(OC)cc3)N(Cc3cccnc3)C(=O)N2Cc2cccnc2)cc1)OCC", "note": "(stereo not drawn) [OCH3, m-pyridine, OCH2PO3Et2]", "values": [{"measurement": "EC50", "setting": "WT; Human immunodeficiency virus 1, read-out: Cell-based assay (MT-4) EC50 WT", "result": 115, "unit": "nM"}]}
{"smiles": "COc1ccc(S(=O)(=O)N(CC(C)C)CC(O)C(Cc2ccc(CN(C)CCP(=O)(O)O)cc2)NC(=O)OC2COC3OCCC23)cc1", "note": "(stereo not drawn) [drawing 663 R1=H R2=H]", "values": [{"measurement": "Ki", "setting": "[1]; Ki (pM)", "result": "10 to 100", "unit": "pM"}]}
{"smiles": "CCOP(=O)(CON=Cc1ccc(CC(NC(=O)OC2COC3OCCC23)C(O)CN(CC(C)C)S(=O)(=O)c2ccc(OC)cc2)cc1)OCC", "note": "(stereo not drawn) [drawing 664 R1=Et R2=Et]", "values": [{"measurement": "Ki", "setting": "[1]; Ki (pM)", "result": "10 to 100", "unit": "pM"}]}
